System: Caco2 cellular line
Test: Permeability on the Caco2 cellular line
Assay type: in vitro ADME

Substance: Cimetidine [reference compound]
- BA/AB ratio: 4.2
- Papp A→B (nm/sec) Mean ± SD (Apical (pH 6.5) → Basolateral (pH 7.4)): 5.8 ± 0.4 nm/s
- A→B Mean mass balance % (A→B): 63%
- B→A Mean mass balance % (B→A): 111%
- Papp B→A (nm/sec) Mean ± SD (B→A): 24.5 ± 3.4 nm/s
